60 molecules from PubChem BioAssay AID504339 (National Center for Advancing Translational Sciences (NCATS), 2011) can be followed below.

Chains of the proteins cited; added tags and fusions are not shown. Lines headed by an entry give the natural chain unless they say otherwise; changes in a name come on top.
UniProt O75164: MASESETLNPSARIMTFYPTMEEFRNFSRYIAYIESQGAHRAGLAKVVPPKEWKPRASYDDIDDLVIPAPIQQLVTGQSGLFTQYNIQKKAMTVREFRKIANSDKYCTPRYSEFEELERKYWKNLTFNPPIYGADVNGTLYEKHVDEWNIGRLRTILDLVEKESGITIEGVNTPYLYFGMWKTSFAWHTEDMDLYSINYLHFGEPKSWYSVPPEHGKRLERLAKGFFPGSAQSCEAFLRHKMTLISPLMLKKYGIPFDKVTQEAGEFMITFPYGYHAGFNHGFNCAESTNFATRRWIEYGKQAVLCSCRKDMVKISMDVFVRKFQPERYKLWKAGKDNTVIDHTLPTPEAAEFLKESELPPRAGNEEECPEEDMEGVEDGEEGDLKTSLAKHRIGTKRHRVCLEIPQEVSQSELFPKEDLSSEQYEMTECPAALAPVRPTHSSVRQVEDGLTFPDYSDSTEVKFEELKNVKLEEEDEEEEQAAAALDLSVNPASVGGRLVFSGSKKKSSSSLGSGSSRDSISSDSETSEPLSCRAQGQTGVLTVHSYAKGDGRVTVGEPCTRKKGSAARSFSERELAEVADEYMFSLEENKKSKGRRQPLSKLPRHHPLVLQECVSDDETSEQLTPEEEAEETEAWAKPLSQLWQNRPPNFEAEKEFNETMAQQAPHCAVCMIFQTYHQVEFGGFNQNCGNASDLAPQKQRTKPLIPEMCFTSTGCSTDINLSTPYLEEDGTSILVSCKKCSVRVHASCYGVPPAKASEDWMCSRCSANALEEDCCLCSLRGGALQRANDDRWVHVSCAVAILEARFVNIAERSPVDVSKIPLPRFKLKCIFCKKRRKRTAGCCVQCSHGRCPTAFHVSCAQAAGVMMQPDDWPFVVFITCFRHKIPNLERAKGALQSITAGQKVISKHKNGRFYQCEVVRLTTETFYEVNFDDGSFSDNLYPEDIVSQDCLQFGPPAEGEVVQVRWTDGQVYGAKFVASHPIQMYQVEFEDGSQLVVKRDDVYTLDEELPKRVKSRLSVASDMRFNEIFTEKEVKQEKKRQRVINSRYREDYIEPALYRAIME

The list shows a part of the results, in another mix than the full data. Results filed as inconclusive are left out. Activity calls are given as the source filed them. Calls come from the whole dose curve; as a rule, active = well fitted inhibition curve with a large enough effect; inconclusive = small, poorly fitted or top-dose-only effect; inactive = no such curve, though single readings can be large or run the other way.
% is set by controls: 0 for no effect and ±100 for the full control effect; potency is the fitted concentration of half-maximal effect.

The target in this assay is Lysine-specific demethylase 4A (Homo sapiens) (UniProt O75164). Put plainly: qHTS Assay for Inhibitors of JMJD2A-Tudor Domain. Note: nearly all actives have a fitted effect of over 50% in size. To be noted: AlphaScreen JMJD2A-Tudor / H3K4me3 peptide binding; series mostly up to 114 µM; activity change, negative = inhibition: at the top concentration. (In general: qHTS replaces the single test concentration by a dilution series.)
As to `O=P1(Nc2nc3ccc(Cl)cc3s2)COc2ccccc2O1` (stereo not given), the “activity change, negative = inhibition” value is inactive: -4.72% [at 57.1 µM].

With `CCOc1ccc(C2=NCC(CBr)S2)cc1` (stereo not given), the “activity change, negative = inhibition” value is inactive: -17%.

Take `CCc1cc(O)c([N+](=O)[O-])c(C)c1[N+](=O)[O-]`: the “activity change, negative = inhibition” value is inactive: -23.3%.

In the case of `CC(C)(C)C(=O)NC(Sc1ccccc1)C(Cl)(Cl)Cl` (stereo not given), the “activity change, negative = inhibition” value is inactive: 17.6%.

Regarding `Nc1cc(N)c2nonc2c1[N+](=O)[O-]`, the “activity change, negative = inhibition” value was inactive: -10.1%.

`CC(C)CC(=O)NC(Sc1ccc(Cl)cc1)C(Cl)(Cl)Cl` (stereo not given): the “activity change, negative = inhibition” value was inactive: 26.7%.

On to `Oc1ccccc1CNc1ccccn1`, for which the “activity change, negative = inhibition” value was inactive: -1.79%.

`O=C(NC(Sc1ccncn1)C(Cl)(Cl)Cl)c1ccccc1` (stereo not given): the Potency is active: 4.47 µM.

Turning to `NC(=O)c1cc([N+](=O)[O-])cc([N+](=O)[O-])c1N`, the “activity change, negative = inhibition” value was inactive: -6.37%.

For the molecule `CN(C(=O)Cc1ccc(Cl)c(Cl)c1)[C@H]1CCCC[C@H]1N1CCCC1`, the “activity change, negative = inhibition” value was inactive: -21.4%.

With `Cc1ccc(N/C(=N/P(=O)(N2CCOCC2)N2CCOCC2)N2CCOCC2)cc1`, the “activity change, negative = inhibition” value is inactive: -16.3%.

In the case of `COc1ccccc1OP(=O)(Nc1ccc(C)cn1)Oc1ccccc1OC`, the “activity change, negative = inhibition” value was inactive: -4.47%.

As for `Cc1ccc(OP(=O)(Nc2nccs2)Oc2ccc(C)cc2)cc1`, the “activity change, negative = inhibition” value is inactive: -3.47%.

With `CN1CCCC(OC(=O)C(c2ccccc2)c2ccccc2)C1` (stereo not given), the “activity change, negative = inhibition” value was inactive: -12.9%.

Regarding `Clc1ccc(Cl)c(NC2=NCC(CBr)S2)c1` (stereo not given), the “activity change, negative = inhibition” value was inactive: 7.9%.

On to `CCN(N=Nc1nonc1N)c1nonc1N`, for which the “activity change, negative = inhibition” value was inactive: -15%.

`Nc1cccc2ccc([As](=O)(O)O)cc12`: the “activity change, negative = inhibition” value was inactive: -9.86%.

As to `CC(=O)Nc1ccc([As](=O)(O)O)cc1`, the “activity change, negative = inhibition” value was inactive: 2.95%.

In the case of `O=C(O)c1ccccc1[As](=O)(O)O`, the “activity change, negative = inhibition” value is inactive: -1.41%.

As for `CCCC1OP(N)(=O)OCC1CC` (stereo not given), the “activity change, negative = inhibition” value was inactive: 2.76%.

Turning to `O=P(Nc1nc2ccc(Cl)cc2s1)(c1ccccc1)c1ccccc1`, the “activity change, negative = inhibition” value is inactive: -32.4%.

Take `Cc1cc(SC(NC(=O)c2ccc(F)cc2)C(Cl)(Cl)Cl)ncn1` (stereo not given): the Potency was active: 5.62 µM.

Take `CCOP(=O)(Nc1ccccc1)OCC`: the “activity change, negative = inhibition” value is inactive: -5.4%.

For `CN(C(=O)Cc1ccc(Cl)c(Cl)c1)[C@H]1CCCC[C@@H]1N1CCCC1`, the “activity change, negative = inhibition” value is inactive: -18%.

On to `Cc1ccc(NP(=O)(Oc2ccccc2F)Oc2ccccc2F)nc1`, for which the “activity change, negative = inhibition” value is inactive: -4.83%.

Consider `CC(C)(C)C(=O)NC(Sc1ccncn1)C(Cl)(Cl)Cl` (stereo not given), for which the Potency was active: 17.8 µM.

For the molecule `O=[N+]([O-])c1ncn(CCn2ncnc2[N+](=O)[O-])n1`, the “activity change, negative = inhibition” value was inactive: -20.4%.

On to `COC(=O)C1(C)COP(=O)(Nc2ccccc2)OC1` (stereo not given), for which the “activity change, negative = inhibition” value is inactive: -9.03%.

Regarding `O=[N+]([O-])c1cccc(NC2=NCC(CBr)S2)c1` (stereo not given), the “activity change, negative = inhibition” value was inactive: -15%.

Consider `O=C(O)CNc1ccc([As](=O)(O)O)cc1`, for which the “activity change, negative = inhibition” value was inactive: -15.2%.

With `O=P1(N(CCCl)CCCl)OCCCS1` (stereo not given), the “activity change, negative = inhibition” value was inactive: -17.2%.

For `O=P(/N=c1/nc(-c2ccccc2)n(-c2ccccc2)s1)(Nc1ccccc1)Nc1ccccc1`, the “activity change, negative = inhibition” value is inactive: 10% [at 57.1 µM].

Consider `O=C(Nc1cc([As](=O)(O)O)ccc1O)c1ccccc1`, for which the “activity change, negative = inhibition” value is inactive: -10.1%.

Regarding `Nc1ccc([As](=O)(O)c2ccc(N)cc2)cc1`, the “activity change, negative = inhibition” value is inactive: 9.86%.

With `CCN(/C(=N/P(=O)(N1CCOCC1)N1CCOCC1)N1CCOCC1)c1ccc(OC)cc1`, the “activity change, negative = inhibition” value was inactive: -6.4%.

Turning to `CC(C)=N/N=C(\N)N[N+](=O)[O-]`, the “activity change, negative = inhibition” value was inactive: -9.62%.

Consider `CN(C)C(=O)OCCc1n(C)cc[n+]1C`, for which the “activity change, negative = inhibition” value is inactive: 4.96%.

Consider `CC1CCN(C(=O)Oc2c(Cl)cc(Cl)c3cccnc23)CC1`, for which the “activity change, negative = inhibition” value is inactive: 0.362%.

For the molecule `COc1ccc(C2=NCC(CBr)S2)cc1` (stereo not given), the “activity change, negative = inhibition” value was inactive: -35.8%.

As to `CC(=O)N1C2C3N(C(C)=O)C1C1N(C(C)=O)C(C(N1C(C)=O)N3C(C)=O)N2C(C)=O`, the “activity change, negative = inhibition” value is inactive: -6.52%.

Turning to `O=[N+]([O-])c1cccc2n[nH]nc12`, the “activity change, negative = inhibition” value is inactive: -15.2%.

`Cc1ccc(NP(=O)(Oc2ccccc2)Oc2ccccc2)nc1`: the “activity change, negative = inhibition” value is inactive: -11.6%.

As for `CCc1nc2c(n1)c1c(non1O)c1c2no[n+]1[O-]`, the “activity change, negative = inhibition” value was inactive: -9.03%.

`CCOC(=O)c1ccc(NC(=O)C(C)(CCl)SC)cc1` (stereo not given): the “activity change, negative = inhibition” value is inactive: -3.45%.

As for `O=C(OC1CN2CCC1CC2)c1cccc([N+](=O)[O-])c1` (stereo not given), the “activity change, negative = inhibition” value was inactive: -6.44%.

For the molecule `CCOP(=O)(Nc1cccc2cccnc12)OCC`, the “activity change, negative = inhibition” value is inactive: -28.1%.

Take `CCC(C)N(CC(C)C)C(=S)SC(NC(C)=O)C(Cl)(Cl)Cl` (stereo not given): the “activity change, negative = inhibition” value was inactive: -27.8%.

For `O=C(COc1ccccc1)OC1CN2CCC1CC2` (stereo not given), the “activity change, negative = inhibition” value is inactive: -2.79%.

On to `O=C(Nc1ccncc1[N+](=O)[O-])c1ccc([N+](=O)[O-])cc1[N+](=O)[O-]`, for which the “activity change, negative = inhibition” value was inactive: -18.8%.

Consider `CCOC(=O)Nc1cccc([As](=O)(O)O)c1`, for which the “activity change, negative = inhibition” value was inactive: -5.3%.

Turning to `O=[N+]([O-])c1ccc(Nc2ccc(Oc3ccc([N+](=O)[O-])cc3[N+](=O)[O-])cc2)c([N+](=O)[O-])c1`, the “activity change, negative = inhibition” value is inactive: -34.5%.

With `CC1CCNP(=O)(N(CCCl)CCCl)O1` (stereo not given), the “activity change, negative = inhibition” value was inactive: -13.7%.

In the case of `CCOC(=O)Nc1ccc([As](=O)(O)O)c(O)c1`, the activity change, negative = inhibition is inactive: -11.8% [at 11.4 µM].

In the case of `CCCCOc1ccc(C(=O)NCC2(N3CCCCC3)CCCCC2)cc1OC`, the “activity change, negative = inhibition” value is inactive: -7.37%.

For the molecule `Cc1cc(SC(NC(=O)c2ccccc2)C(Cl)(Cl)Cl)nc(C(C)C)n1` (stereo not given), the Potency was active: 70.8 µM.

Turning to `COC(=O)C1(C)COP(=O)(N2CCCCCC2)OC1` (stereo not given), the “activity change, negative = inhibition” value was inactive: 6.25%.

Turning to `CC(C)c1ccc(OP(=O)(Nc2ccccn2)Oc2ccccc2F)cc1` (stereo not given), the “activity change, negative = inhibition” value is inactive: -16.6%.

Take `ClCCSc1nnc(-c2cccnc2)o1`: the “activity change, negative = inhibition” value was inactive: -7.19%.

On to `CC(C)NC(=O)NP(=O)(Oc1ccccc1)Oc1ccccc1`, for which the “activity change, negative = inhibition” value is inactive: -5.5%.

In the case of `O=C(OC1CN2CCC1CC2)c1cccc2[nH]cnc12` (stereo not given), the “activity change, negative = inhibition” value was inactive: -4.76%.
